Measured values reported in patent US10167272B2, “Muscarinic agonists” (Heptares Therapeutics Limited, priority 2015, dated 2019).
This is a selection: effects in other tests are not listed, and their absence says nothing.

Chains of the proteins cited; added tags and fusions are not shown.
UniProt P08173, whole entry: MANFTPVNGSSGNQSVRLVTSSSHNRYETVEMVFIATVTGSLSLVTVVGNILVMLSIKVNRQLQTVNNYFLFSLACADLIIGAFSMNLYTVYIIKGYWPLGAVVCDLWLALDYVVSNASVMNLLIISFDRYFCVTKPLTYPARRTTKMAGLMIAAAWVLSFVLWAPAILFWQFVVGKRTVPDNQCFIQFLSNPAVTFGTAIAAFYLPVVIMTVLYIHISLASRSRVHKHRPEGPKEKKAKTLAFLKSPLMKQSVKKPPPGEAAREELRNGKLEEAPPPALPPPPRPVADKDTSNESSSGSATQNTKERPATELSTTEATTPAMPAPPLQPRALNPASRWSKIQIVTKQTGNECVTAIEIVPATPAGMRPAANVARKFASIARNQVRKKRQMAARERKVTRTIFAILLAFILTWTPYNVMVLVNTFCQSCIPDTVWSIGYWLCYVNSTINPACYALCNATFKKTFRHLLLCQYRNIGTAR
UniProt P11229, whole entry: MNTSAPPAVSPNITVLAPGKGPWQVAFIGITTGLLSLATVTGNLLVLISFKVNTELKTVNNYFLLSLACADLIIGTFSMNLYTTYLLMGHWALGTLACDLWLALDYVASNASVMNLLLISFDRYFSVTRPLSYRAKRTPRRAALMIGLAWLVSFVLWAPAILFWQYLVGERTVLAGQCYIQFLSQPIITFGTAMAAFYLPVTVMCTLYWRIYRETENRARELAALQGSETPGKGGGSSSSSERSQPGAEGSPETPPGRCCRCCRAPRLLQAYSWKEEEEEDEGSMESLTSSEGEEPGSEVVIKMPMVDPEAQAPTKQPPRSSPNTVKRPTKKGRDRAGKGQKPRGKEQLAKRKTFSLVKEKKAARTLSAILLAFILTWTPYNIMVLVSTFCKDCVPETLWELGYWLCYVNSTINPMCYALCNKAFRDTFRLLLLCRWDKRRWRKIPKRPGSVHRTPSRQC

Columns and labels:
[1] = target: human muscarinic M4 receptor (Homo sapiens, UniProt P08173); assay: Alphascreen Surefire phospho-ERK1/2 functional assay, M4; type: cell-based
[2] = target: human muscarinic M1 receptor (Homo sapiens, UniProt P11229); assay: Alphascreen Surefire phospho-ERK1/2 functional assay, M1; type: cell-based

Compound: CCOC(=O)N1CCC2(CC(N3CCC(N(C(C)=O)c4ccccn4)CC3)C2)C1 (stereo not shown)
- pEC50 M4 ([1]; CHO cells stably expressing human M4): 6.2
- % Emax cf. ACh (M4) ([1]; CHO cells stably expressing human M4, relative to ACh): 56%
- pEC50 M1 ([2]; CHO cells stably expressing human M1): 6.8
- % Emax cf. ACh (M1) ([2]; CHO cells stably expressing human M1, relative to ACh): 116%
